Only a part is listed here, and it is no random draw. Some salts and complexes are drawn in separate pieces, as the source files them; their charges need not balance. Calls of active or inactive are those of the source.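 How the source made its calls: active means mean activation of at least 10% of the iron chelator positive control signal, with at least half of replicates also reaching 10%; inconclusive means mean and replicate majority disagree about reaching 10%; inactive means mean and most replicates under 10%.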

This test in a line: hypoxia response element reporter activation – cell-based, U2OS HRE-luciferase, luminescence, primary screen (AID 1910). The following applies: active compounds read high, screened at 7.5 µM (by protocol), normalized: DMSO 0%, desferrioxamine 100%.
As to `O=C(OC1CN2CCC1CC2)c1ccc([N+](=O)[O-])cc1` (stereo unspecified), the activation is inactive: -1.28%.
On to `O=C(OCCN1CCN(CCOCc2ccccc2)CC1)C(O)(c1ccccc1)c1ccccc1`, for which the activation was inactive: -0.162%.
For `COc1ccc2c(c1O)-c1c(O)c(OC)cc3c1[C@H](C2)[N+](C)(C)CC3.O=[N+]([O-])c1cc([N+](=O)[O-])c([O-])c([N+](=O)[O-])c1[O-]`, the activation is inactive: -1.37%.
On to `CP(=O)(Nc1ccccc1F)Oc1ccccc1` (stereo unspecified), for which the activation is inactive: -0.101%.
In the case of `CC(C)c1ccc(OP(C)(=O)Nc2ccc(SC(F)(F)F)cc2)cc1` (stereo unspecified), the activation is inactive: -0.0382%.
With `CCN(CC)CCCOC(=O)C(O)(c1ccccc1)C1CCCCC1` (stereo unspecified), the activation was inactive: 0.325%.
For `CP(=O)(Nc1ccccc1)Oc1ccc(F)cc1` (stereo unspecified), the activation was inactive: -0.258%.
For `CCCCCOc1ccc(NP(C)(=O)Oc2ccc(Cl)cc2Cl)cc1` (stereo unspecified), the activation is inactive: -0.0462%.
Consider `O=[N+]([O-])c1cc([N+](=O)[O-])c(OC2CCCCC2O)c([N+](=O)[O-])c1` (stereo unspecified), for which the activation was inactive: -0.447%.
For `CCOC(=O)c1ccc(NP(C)(=O)Oc2ccc(F)cc2)cc1` (stereo unspecified) the value was inactive: -0.271%; for `COc1ccc(OP(C)(=O)Nc2ccc(SC(F)(F)F)cc2)cc1` (stereo unspecified), inactive: 0.613%.
Consider `O=[N+]([O-])c1ccc(OP2(=O)COCCO2)cc1` (stereo unspecified), for which the activation is inactive: 0.0133%.
In the case of `O=[N+]([O-])c1cc([N+](=O)[O-])c(NCC2CCS(=O)(=O)C2)c([N+](=O)[O-])c1` (stereo unspecified), the activation is inactive: -0.283%.
With `Cc1cc(-c2cccc3ccccc23)c(C)cn1.O=[N+]([O-])c1cc([N+](=O)[O-])c(O)c([N+](=O)[O-])c1`, the activation is inactive: 0.107%.
With `COc1ccc(OP(C)(=O)Nc2cccc(Br)c2)cc1` (stereo unspecified), the activation was inactive: -0.418%.
As to `CN(C)CCOC(=O)C(O)(c1ccccc1)C1CCCCC1` (stereo unspecified), the activation is inactive: -0.0833%.
Consider `COc1ccc(NP(C)(=O)Oc2ccccc2OC)cc1` (stereo unspecified), for which the activation is inactive: 0.302%.
Take `CP(=O)(Nc1ccc2c(c1)OCCO2)Oc1ccccc1` (stereo unspecified): the activation was inactive: -0.196%.
With `Cc1ccccc1NP(C)(=O)Nc1ccccc1C` the figure was inactive: -0.572%; with `CP(=O)(Nc1ccc(SC(F)(F)F)cc1)Oc1ccc(F)cc1` (stereo unspecified), inactive: -0.61%; with `CCOP(C)(=S)SCC(=O)NC(C)(CC)C(=O)O` (stereo unspecified), inactive: -0.192%.
`CC(C)(C)c1ccc(OP(C)(=O)O)cc1`: the activation was inactive: -0.06%.
As to `COc1ccccc1OP(C)(=O)Nc1ccccc1Br` (stereo unspecified), the activation was inactive: -1.03%.
Turning to `CP(=O)(Nc1ccc(Cl)cc1)Oc1ccc(F)cc1` (stereo unspecified), the activation is inactive: -0.255%.
Turning to `CN(C)C(=O)c1c([N+](=O)[O-])cc([N+](=O)[O-])cc1[N+](=O)[O-]`, the activation is inactive: -0.396%.
Turning to `COc1ccc(OP(C)(=O)Nc2ccc(Br)cc2)cc1` (stereo unspecified), the activation is inactive: 1.68%.
`CCN(CC)CC(O)COC(=O)C(O)(c1ccccc1)C1CCCCC1` (stereo unspecified): the activation was inactive: -0.423%.
For `O=C(OCCCN1CCCC1)C(O)(c1ccccc1)C1CCCCC1` (stereo unspecified), the activation was inactive: 0.464%.
For `COc1ccccc1OP(C)(=O)Nc1c(C)n(C)n(-c2ccccc2)c1=O` (stereo unspecified), the activation is inactive: -0.165%.
On to `CCc1ccc(OP(C)(=O)Nc2cccnc2)cc1` (stereo unspecified), for which the activation was inactive: 0.443%.
In the case of `CP(=O)(Oc1ccccc1)N1CCOC1=O` (stereo unspecified), the activation is inactive: 0.462%.
`Nc1ccc2c(ccc3cccnc32)n1.O=[N+]([O-])c1cc([N+](=O)[O-])c(O)c([N+](=O)[O-])c1`: the activation was inactive: 0.485%.
For `CCOC(=O)c1ccc(NP(C)(=O)Oc2ccc(Cl)cc2)cc1` (stereo unspecified) the value was inactive: 0.066%; for `CP(=O)(OC12CC3CC(CC(C3)C1)C2)OC12CC3CC(CC(C3)C1)C2`, inactive: -0.854%; for `Cc1nc2ccc3ccccc3c2o1.O=[N+]([O-])c1cc([N+](=O)[O-])c(O)c([N+](=O)[O-])c1`, inactive: 1.03%.
With `CP(=O)(OCCOc1ccccc1)OCCOc1ccccc1`, the activation was inactive: -0.265%.
With `CP(=O)(Nc1ccc(Cl)cc1Cl)Oc1ccccc1` (stereo unspecified), the activation is inactive: -0.0659%.
On to `Cc1cc(C)cc(OP(C)(=O)Nc2cccc(C(F)(F)F)c2)c1` (stereo unspecified), for which the activation is inactive: -0.36%.
For the molecule `COc1ccccc1OP(C)(=O)Nc1ccc(C)c(C)c1` (stereo unspecified), the activation is inactive: -0.229%.
For `COc1ccc(OP(C)(=O)Nc2ccccc2Br)cc1` (stereo unspecified), the activation is inactive: -0.133%.
`Cc1c(NP(C)(=O)Oc2ccc(C(C)C)cc2)c(=O)n(-c2ccccc2)n1C` (stereo unspecified): the activation was inactive: -0.812%.
In the case of `COc1ccccc1OP(C)(=O)Nc1ccc(C)cc1C` (stereo unspecified), the activation was inactive: -0.168%.
With `CP(=O)(Nc1ccccn1)Oc1ccccc1` (stereo unspecified), the activation is inactive: -0.169%.
Take `CCc1ccc(OP(C)(=O)O)cc1`: the activation was inactive: -0.29%.
For the molecule `COc1ccccc1OP(C)(=O)Nc1ccc(Br)cc1` (stereo unspecified), the activation was inactive: 0.25%.
For `COc1ccc(OP(C)(=O)Nc2ccccn2)cc1` (stereo unspecified), the activation is inactive: -0.212%.
Regarding `CCN(CC)CCCOC(=O)C(O)(c1ccccc1)c1ccccc1`, the activation was inactive: 0.105%.
In the case of `Cc1ccc(NP(C)(=O)Oc2ccccc2)c(C)c1` (stereo unspecified), the activation was inactive: -31.8%.
Turning to `COc1ccccc1OP(C)(=O)Nc1ccc(C)cc1` (stereo unspecified), the activation is inactive: -0.266%.
As to `CCOC(=O)c1ccc(NP(C)(=O)Oc2ccccc2)cc1` (stereo unspecified), the activation is inactive: -0.689%.
For the molecule `Cc1cc(C)cc(OP(C)(N)=O)c1` (stereo unspecified), the activation is inactive: -0.136%.
With `COc1ccc(OP(C)(=O)Nc2cccc(F)c2)cc1` (stereo unspecified) the figure was inactive: -0.882%.
Take `COc1ccccc1OP(C)(=O)Nc1cc(Cl)ccc1C` (stereo unspecified): the activation was inactive: -0.509%.
For `O=[N+]([O-])c1cc([N+](=O)[O-])c(Nc2cccnc2)c([N+](=O)[O-])c1`, the activation was inactive: 2.02%.
On to `O=[N+]([O-])c1ccc2c(c1)C=Nc1ccccc1O2`, for which the activation is inactive: -0.335%.
For `Cc1cccc(C)c1OP(C)(N)=O` (stereo unspecified) the value was inactive: 0.141%; for `CC(C)(C)c1ccc(OP(C)(=O)Nc2ccc(SC(F)(F)F)cc2)cc1` (stereo unspecified), inactive: 0.0901%; for `CP(=S)(Nn1cnnc1)Oc1ccccc1` (stereo unspecified), inactive: 0.0698%.
For `CP(=O)(Nc1ccccc1Br)Oc1ccccc1` (stereo unspecified) the value was inactive: -0.895%.
`COc1ccccc1OP(C)(=O)Nc1ccccc1` (stereo unspecified): the activation is inactive: -0.141%.
With `CCOC(=O)c1ccc(NP(C)(=O)Oc2ccc(OC)cc2)cc1` (stereo unspecified), the activation is inactive: -0.532%.
Regarding `O=[N+]([O-])c1cc([N+](=O)[O-])c(O)c([N+](=O)[O-])c1.c1ccc(Oc2ccncc2)cc1`, the activation was inactive: -1.12%.
For `CCOP(C)(=S)SCC(=O)NC(C)C(=O)O` (stereo unspecified) the value was inactive: 0.0602%; for `CP(=O)(Nc1ccccn1)Oc1ccc(Cl)cc1` (stereo unspecified), inactive: 0.259%.
Regarding `CP(=O)(Oc1ccccc1)OC(c1ccccc1)C(F)(F)F` (stereo unspecified), the activation is inactive: -0.866%.
On to `Cc1cccc(C)c1OP(C)(=O)Nc1ccc(SC(F)(F)F)cc1` (stereo unspecified), for which the activation was inactive: -0.403%.
For the molecule `CP(=O)(Nc1ccc(SC(F)(F)F)cc1)Oc1ccc(Cl)cc1` (stereo unspecified), the activation is inactive: 0.4%.
Take `Cc1cc(C)cc(OP(C)(=O)Nc2ccc(SC(F)(F)F)cc2)c1` (stereo unspecified): the activation was inactive: -0.445%.
For the molecule `CCc1ccc(OP(C)(=O)N2CCN(c3ccc([N+](=O)[O-])cc3)CC2)cc1` (stereo unspecified), the activation was inactive: 0.758%.
For `CP(=O)(NC(=O)Nc1ccccc1)Oc1ccccc1` (stereo unspecified) the value was inactive: 0.807%; for `O=[N+]([O-])c1cc([N+](=O)[O-])c(-c2cnn(-c3ccccc3)c2)c([N+](=O)[O-])c1`, inactive: -0.593%; for `O=[N+]([O-])c1cc([N+](=O)[O-])c(-n2nnc3ccccc32)c([N+](=O)[O-])c1`, inactive: -0.262%.
In the case of `COc1ccccc1OP(C)(=O)Nc1c(C)cccc1C` (stereo unspecified), the activation was inactive: -0.305%.
`CN1CCCCC1COC(=O)C1(O)c2ccccc2CCc2ccccc21` (stereo unspecified): the activation was inactive: 0.437%.
On to `CP(=O)(Nc1ccc(SC(F)(F)F)cc1)Oc1ccccc1` (stereo unspecified), for which the activation is inactive: -0.192%.
Regarding `CCCOc1ccc(NP(C)(=O)Oc2ccc(Cl)cc2)cc1` (stereo unspecified), the activation is inactive: -0.528%.
For `CCOC(=O)C(CC)C1=NC(C)(C)Cc2ccccc21.O=[N+]([O-])c1cc([N+](=O)[O-])c(O)c([N+](=O)[O-])c1` (stereo unspecified) the value was inactive: -0.353%; for `O=[N+]([O-])c1cc([N+](=O)[O-])c(Nc2nnnn2CCO)c([N+](=O)[O-])c1`, inactive: -1.07%.
In the case of `CC1=NCCc2c1[nH]c1ccccc21.O=[N+]([O-])c1cc([N+](=O)[O-])c(O)c([N+](=O)[O-])c1`, the activation was inactive: -0.222%.
For the molecule `O=C(O)c1cccc(Nc2c([N+](=O)[O-])cc([N+](=O)[O-])cc2[N+](=O)[O-])c1`, the activation was inactive: -0.35%.
For `Cc1ccc(C)c(NP(C)(=O)Oc2ccccc2)c1` (stereo unspecified) the value was inactive: -1.87%.
`CP(=O)(Nc1cccc(Br)c1)Oc1ccccc1` (stereo unspecified): the activation was inactive: -1.26%.
In the case of `Cc1cc(C)cc(OP(C)(=O)Nc2ccccn2)c1` (stereo unspecified), the activation is inactive: 0.33%.
As for `COc1ccccc1OP(C)(=O)Nc1cccc(Br)c1` (stereo unspecified), the activation was inactive: 0.33%.
As for `CCOC(=O)c1ccc(NP(C)(=O)Oc2cc(C)cc(C)c2)cc1` (stereo unspecified), the activation is inactive: 1.18%.
On to `Cc1cc(C)cc(OP(C)(=O)Nc2ccc(C)cc2C)c1` (stereo unspecified), for which the activation is inactive: -0.271%.

The values above are taken from PubChem BioAssay AID1910 (Broad Institute, 2009).
